From patent US20240002398A1, “COMPLEX, AND USE THEREOF” (RIKEN, priority 2020, published 2024)

How the values were obtained:
Assay in all cases: ATP assay (cytotoxicity assay), MMC-ABC and MMC
[1] = test system: A549 (human lung adenocarcinoma cells); conditions: A549, 0.05-50 μM, 48 hours at 37° C., FIG. 11
Experimental: (§1) (Condition 3) The cells were treated with 1 mM of N-acetyl cysteine (NAc-Cys) in the culture medium, and incubated for 2 hours at 37° C.
(§2) Results are shown in FIG. 10 [MCF10A (normal human mammary cells)] and FIG. 11 [A549 (human lung adenocarcinoma cells) and HeLa S3 (human cervical cancer cells)].

[2] = test system: HeLa S3 (human cervical cancer cells); conditions: HeLa S3, 0.05-50 μM, 48 hours at 37° C., FIG. 11
Experimental: as §1, §2

[3] = test system: MCF10A (normal human mammary cells); conditions: 0.05-50 μM, 48 hours at 37° C., FIG. 10
Experimental: as §1, §2

CO[C@@]12[C@H](COC(N)=O)C3=C(C(=O)C(C)=C(N)C3=O)N1C[C@@H]1N[C@@H]12 [mitomycin C]
cytotoxicity (cell viability) [1]: nonspecifically exhibited cytotoxicity toward normal cells and cancer cells | cytotoxicity (cell viability) [2]: nonspecifically exhibited cytotoxicity toward normal cells and cancer cells | cytotoxicity (cell viability) [3]: nonspecifically exhibited cytotoxicity toward normal cells and cancer cells
